Data published in PubChem BioAssay AID652010 (The Scripps Research Institute Molecular Screening Center, 2013).
The list shows a part of the results, in another mix than the full data. Some tests of the compounds listed are not included; inactive here does not mean inactive elsewhere. The source made the active and inactive calls.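 How the source made its calls: active means inhibition above the mean over all tested compounds plus 3 SD (cut at about 3.6% in these data); inactive means the rest.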

Assay: relief of DAX-1 repression of SF-1 activity – cell-based, luminescence, SF-1 (NR5A1), full-length DAX-1, primary screen (AID 652010);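 further: 0% = DAX-1 cells with DMSO and 100% = cells lacking DAX-1 with DMSO; higher inhibition means more luminescence from relief of DAX-1 repression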
Details: HEK293T StAR-luciferase reporter, SF-1/DAX-1 repression relief; at 6.8 µM; hits give high values
For COc1cc(C(=O)NCC2(N(C)C)CCCCC2)c([N+](=O)[O-])cc1OC, the inhibition was inactive: -0.38%.
For CN(C)C1(CNC(=O)c2ccc(Br)cc2)CCCCC1, the inhibition was inactive: -0.6%.
With O=C(NCC1(N2CCCCC2)CCCCC1)c1cccc(Cl)c1 the inhibition was inactive: 1.26%.
In the case of COc1cccc(C(=O)NCC2(N3CCCCC3)CCCCC2)c1, the inhibition was inactive: 1.22%.
For COc1ccc(Cl)cc1C(=O)NCC1(N(C)C)CCCCC1, the inhibition was inactive: 0.1%.
With O=C(OC1CN2CCC1CC2)C(CO)(c1ccccc1)c1ccccc1 (stereo unspecified) the inhibition was inactive: 0.2%.
In the case of CC(C)Oc1ccc(C(=O)NCC2(N(C)C)CCCCC2)cc1, the inhibition was inactive: 0.44%.
For O=C(OCCN1CCCC1)C(O)(c1ccccc1)c1ccccc1, the inhibition was inactive: 0.26%.
With CN(C)c1cccc(C(=O)NCC2(N(C)C)CCCCC2)c1 the inhibition was inactive: 0.16%.
For C=C(C)C#CC(O)(C(=O)OC1CCN(C)CC1)c1ccccc1 (stereo unspecified), the inhibition was inactive: -0.5%.
In the case of COc1ccc(Br)c(C(=O)NCC2(N3CCCCC3)CCCCC2)c1, the inhibition was inactive: 0.43%.
For CN1[C@@H]2CC[C@H]1CC(OC(=O)C(O)(c1ccccc1)c1ccccc1)C2 (stereo partly specified), the inhibition was inactive: 0.99%.
For O=C(NCC1(N2CCCCC2)CCCCC1)c1cc([N+](=O)[O-])ccc1Cl, the inhibition was inactive: 0.37%.
With Cc1ccc(C(=O)NCC2(N3CCCCC3)CCCCC2)cc1 the inhibition was inactive: 0.91%.
With CCN(CC)CC(C)C(C)OC(=O)C(O)(c1ccccc1)c1ccccc1 (stereo unspecified) the inhibition was inactive: 0.92%.
In the case of COc1cc(SC)ccc1C(=O)NCC1(N(C)C)CCCCC1, the inhibition was inactive: -0.23%.
In the case of CC(C)N1C(=O)CC2(CCN(CCOC(=O)C(O)(c3ccccc3)c3ccccc3)CC2)C1=O, the inhibition was inactive: -0.51%.
With Cc1ccccc1C(=O)NCC1(N2CCCCC2)CCCCC1 the inhibition was inactive: -0.46%.
For CN(C)C1CCCC1OC(=O)C(O)(c1ccccc1)c1ccccc1 (stereo unspecified), the inhibition was inactive: 0.26%.
With CN(C)c1ccc(C(=O)NCC2(N(C)C)CCCCC2)cc1 the inhibition was inactive: 0.79%.
For COc1ccc(C(=O)NCC2(N(C)C)CCCCC2)cc1, the inhibition was inactive: -0.57%.
In the case of Cc1cc(C(=O)NCC2(N3CCCCC3)CCCCC2)ccc1[N+](=O)[O-], the inhibition was inactive: 0.97%.
In the case of CCN1CCCC(OC(=O)C2(O)c3ccccc3C=Cc3ccccc32)C1 (stereo unspecified), the inhibition was inactive: -0.4%.
In the case of O=C(NCC1(N2CCCCC2)CCCCC1)c1cccc(Br)c1, the inhibition was inactive: 0.86%.
For C=CCN1CCN(CCOC(=O)C(O)(c2ccccc2)c2ccccc2)CC1, the inhibition was inactive: 0.72%.
For O=C(NCC1(N2CCCCC2)CCCCC1)c1cc(F)c(F)cc1Cl, the inhibition was inactive: 0.46%.
